The source of these data is ChEMBL document CHEMBL1158559, “Chromone-2- and -3-carboxylic acids inhibit differently monoamine oxidases A and B” (Bioorg Med Chem Lett, 2010).

By UniProt entry, the sequences of proteins in these tests, tags left out.
UniProt P27338, whole entry: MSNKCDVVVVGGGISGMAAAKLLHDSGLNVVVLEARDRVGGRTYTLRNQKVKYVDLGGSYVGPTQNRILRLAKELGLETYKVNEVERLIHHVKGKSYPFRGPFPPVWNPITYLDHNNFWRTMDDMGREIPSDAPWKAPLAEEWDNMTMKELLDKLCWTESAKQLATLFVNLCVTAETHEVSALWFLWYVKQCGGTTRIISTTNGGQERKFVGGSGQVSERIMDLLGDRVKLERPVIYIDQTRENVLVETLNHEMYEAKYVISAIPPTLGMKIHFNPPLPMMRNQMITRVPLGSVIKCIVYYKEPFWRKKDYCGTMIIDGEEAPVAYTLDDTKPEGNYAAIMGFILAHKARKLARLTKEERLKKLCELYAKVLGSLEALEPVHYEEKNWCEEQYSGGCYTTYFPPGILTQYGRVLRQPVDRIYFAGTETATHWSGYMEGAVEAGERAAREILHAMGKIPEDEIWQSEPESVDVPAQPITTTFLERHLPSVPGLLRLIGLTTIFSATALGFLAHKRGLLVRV

pIC50: −log10 of the molar value.

The experiment concerns the target Amine oxidase [flavin-containing] B (Homo sapiens, UniProt P27338).

On to `O=C(O)c1coc2ccccc2c1=O`, for which the pIC50 was 7.32.
